Earlier results as cited in patent publication US20070122482A1, “Method for preparing modified release pharmaceutical compositions” (priority 2003, published 2007).

## Cc1nc2n(c(=O)c1CCN1CCC(c3noc4cc(F)ccc34)CC1)CCCC2 [Risperidone]
  Solubility in water: Insoluble
